Experiments:
[1] = biological target: T1, human serum butyrylcholinesterase (Homo sapiens, UniProt P06276); test: Inhibition (carbamylation) kinetics of human serum butyrylcholinesterase; conditions: for potency relative to physostigmine and pyridostigmine: human butyrylcholinesterase
[2] = biological target: muscarinic receptor (ileum, predominantly the M2 receptor subtype) (Cavia porcellus, UniProt H0W1Z3); test: Acetylcholine-induced contraction of guinea pig ileum (inhibition); conditions: for pA2, inhibition of guinea pig ileum contraction / Kb: acetylcholine-induced contraction; for pA2, inhibition of guinea pig ileum contraction: mean of four to five independent experiments ± SEM; for Kb: read-out: KB, inhibition of guinea pig ileum contraction, from Schild plot
muscarinic receptors = test: Overall antimuscarinic activity and muscarinic subtype specificity (Table I comparison); conditions: for muscarinic subtype specificity: comparison of inhibition constants
[3] = test system: 7-(methylethoxyphosphinyloxy)-1-methylquinolinium iodide (MEPQ) poisoning; test: Protection of pretreated guinea pigs against MEPQ challenge
[4] = test system: butyrylcholinesterase over acetylcholinesterase; conditions: steady-state kinetics; cited from earlier work
[5] = biological target: T1, human serum butyrylcholinesterase; conditions: Aarbakke, J. et al; cited from earlier work
[6] = biological target: pancreatic acinar cells (M2 receptor subtype) (Rattus norvegicus, UniProt P08483); test: Inhibition of carbachol-induced α-amylase release from pancreatic acinar cells
[7] = test system: muscarinic receptor, predominantly the M1 receptor subtype (cerebral cortex); test: [^3 H]NMS binding to cerebral cortex
[8] = five pretreated animals, 4 LD50 of MEPQ

By UniProt entry, the sequences of proteins in these tests, tags left out. Residues count along the entry.
UniProt P06276, 29-602 limits assumed: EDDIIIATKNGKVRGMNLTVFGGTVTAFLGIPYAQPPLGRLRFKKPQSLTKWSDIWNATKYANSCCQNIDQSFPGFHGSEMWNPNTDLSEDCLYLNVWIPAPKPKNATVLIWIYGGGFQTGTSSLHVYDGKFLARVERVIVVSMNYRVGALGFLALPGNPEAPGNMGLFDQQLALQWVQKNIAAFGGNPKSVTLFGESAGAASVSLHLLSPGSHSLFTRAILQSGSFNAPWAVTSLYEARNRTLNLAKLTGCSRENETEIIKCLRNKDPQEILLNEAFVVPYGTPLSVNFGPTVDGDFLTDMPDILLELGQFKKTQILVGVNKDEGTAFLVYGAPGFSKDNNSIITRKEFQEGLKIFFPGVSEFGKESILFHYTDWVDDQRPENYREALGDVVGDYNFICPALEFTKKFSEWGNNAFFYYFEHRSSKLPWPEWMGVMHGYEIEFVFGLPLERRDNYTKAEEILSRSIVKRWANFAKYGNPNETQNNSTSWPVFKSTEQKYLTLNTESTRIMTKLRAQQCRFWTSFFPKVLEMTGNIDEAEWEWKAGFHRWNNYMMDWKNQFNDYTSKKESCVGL
UniProt H0W1Z3, 1-590: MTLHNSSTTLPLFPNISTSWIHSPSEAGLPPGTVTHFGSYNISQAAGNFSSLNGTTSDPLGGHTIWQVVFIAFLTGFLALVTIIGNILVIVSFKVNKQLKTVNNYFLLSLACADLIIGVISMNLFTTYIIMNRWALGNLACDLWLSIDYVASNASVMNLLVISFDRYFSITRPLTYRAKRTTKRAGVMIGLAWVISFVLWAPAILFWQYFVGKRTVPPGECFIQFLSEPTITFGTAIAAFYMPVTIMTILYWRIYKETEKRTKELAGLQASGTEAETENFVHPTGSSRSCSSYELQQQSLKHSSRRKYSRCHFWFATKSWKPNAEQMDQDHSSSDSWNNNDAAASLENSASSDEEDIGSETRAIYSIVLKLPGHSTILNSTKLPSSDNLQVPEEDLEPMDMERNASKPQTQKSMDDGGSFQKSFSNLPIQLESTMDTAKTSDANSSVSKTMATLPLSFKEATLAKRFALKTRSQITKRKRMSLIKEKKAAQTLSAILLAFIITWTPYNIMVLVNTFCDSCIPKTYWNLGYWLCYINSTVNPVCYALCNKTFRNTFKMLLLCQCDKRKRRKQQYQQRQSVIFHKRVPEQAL
UniProt P08483, whole entry, looked up: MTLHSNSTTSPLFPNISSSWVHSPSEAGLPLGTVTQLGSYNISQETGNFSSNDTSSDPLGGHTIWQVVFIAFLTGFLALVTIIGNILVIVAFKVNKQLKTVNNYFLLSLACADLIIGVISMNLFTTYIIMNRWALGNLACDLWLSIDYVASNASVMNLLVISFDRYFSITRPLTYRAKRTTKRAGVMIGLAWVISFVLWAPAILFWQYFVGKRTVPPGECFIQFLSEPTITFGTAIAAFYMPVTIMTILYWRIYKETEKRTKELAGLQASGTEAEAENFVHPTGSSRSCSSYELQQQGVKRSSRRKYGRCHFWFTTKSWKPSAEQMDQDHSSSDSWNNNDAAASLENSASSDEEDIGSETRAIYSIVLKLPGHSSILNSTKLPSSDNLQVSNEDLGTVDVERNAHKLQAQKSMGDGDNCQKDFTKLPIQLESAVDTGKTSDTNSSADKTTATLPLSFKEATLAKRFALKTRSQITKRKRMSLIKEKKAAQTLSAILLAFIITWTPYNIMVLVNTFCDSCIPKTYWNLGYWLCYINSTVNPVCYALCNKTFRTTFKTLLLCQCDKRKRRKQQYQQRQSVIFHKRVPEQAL

For `CCN(CC)CCOC(=O)C(C)(c1ccc(O)cc1)c1ccc(OC(=O)N(C)C)cc1` (centres unmarked), the “potency relative to physostigmine and pyridostigmine” value [1] was “high potencies on the order of those of physostigmine and pyridostigmine”, the “pA2, inhibition of guinea pig ileum contraction” value (“pA2, inhibition” for short) [2] was 5.5 ± 0.2 and the Kb [2] was 3.2 µM. For the same molecule, the “muscarinic subtype specificity” value (muscarinic receptors; Table I) was “do not exhibit any muscarinic subtype specificity”, the “antimuscarinic activities relative to dimethyl carbaphen” value (muscarinic receptors; comparison with Compound 15) was “one to two orders of magnitude lower” and the “antimuscarinic activity” value (muscarinic receptors; overall, Table I) was “poor antimuscarinic potency”.

With `CCN(CC)CCOC(=O)C(C)(c1ccccc1)c1ccc(OC(=O)NC)cc1` (centres unmarked) the “potency relative to physostigmine and pyridostigmine” value [1] was “high potencies on the order of those of physostigmine and pyridostigmine”, the “survival of challenge of 2 LD50 of MEPQ” value ([3]; 30 min pretreatment with dose sufficient to inhibit cholinesterase in vivo by about 60%) was “can survive a challenge of 2 LD50 of MEPQ” and the “animals that died after about 15 min” value [3, 8] was “two”. The “animals that died after about 45 min” value [3, 8] was “one”, the “animals that survived, alive at the end of the day” value [3, 8] was “two” and the “pA2, inhibition” value [2] was 7.3 ± 0.1. The “pA2, inhibition” value ([2]; listed as monomethyl carbaphen (16)) was 7.3±0.1, the Kb [2] was 0.05 µM and the “muscarinic subtype specificity” value (muscarinic receptors; Table I) was “more specificity for the pancreatic M2 receptor subtype over the M1 subtype of the cortex”. For the same molecule, the “antimuscarinic activity” value (muscarinic receptors; overall, Table I, listed as Compound 16) was “potent antimuscarinic activity”, the “antimuscarinic activity” value (muscarinic receptors; overall, Table I, listed as monomethyl carbaphen) was “very similar to that of aprophen” and the “antimuscarinic activity” value (muscarinic receptors; overall, Table I, listed as monomethyl carbaphen (16)) was “most potent antimuscarinic analog”. For the same molecule, the “antimuscarinic activity” value (muscarinic receptors; overall, Table I, listed as monomethyl carbaphen (Compound 16)) was “almost the same anti-muscarinic profile as the known compound aprophen”.

In the case of `CCN(CC)CCOC(=O)C(C)(c1ccccc1)c1ccccc1`, the “preferential inhibition of butyrylcholinesterase over acetylcholinesterase” value [4] is listed as “preferentially inhibit butyrylcholinesterase over acetylcholinesterase” and the “hydrolysis by human serum butyrylcholinesterase” value [5] is listed as “not subject to hydrolysis by human serum butyrylcholinesterase”.

With `CCN(CC)CCOC(=O)C(C)(c1ccc(O)cc1)c1ccc(O)cc1` the “pA2, inhibition” value [2] was 5.7 ± 0.1, the Kb [2] was 2 µM and the “antimuscarinic activity” value (muscarinic receptors; overall, Table I) was “poor antimuscarinic potency”. The Ki (muscarinic receptors; read-out: antimuscarinic inhibition constants, region, overall, Table I) was 1 µM.

For `CCN(CC)CCOC(=O)C(C)(c1ccc(OC(=O)N(C)C)cc1)c1ccc(OC(=O)N(C)C)cc1`, the “Ki, inhibition of pancreatic acini α-amylase release” value ([6]; 10^-5 M carbachol, mean of four to five independent experiments ± SEM) was “not active”, the “Ki, inhibition of cerebral cortex [^3 H]NMS binding” value ([7]; 2 nM [^3 H]NMS, 25° C., mean of four to five independent experiments ± SEM) was “marginal activity” and the “ability to carbamylate / inhibition of human butyrylcholinesterase” value ([1]; time-dependent) was “potent ability to carbamylate butyrylcholinesterase”. The “pA2, inhibition” value [2] was “not active”, the “muscarinic subtype specificity” value (muscarinic receptors; Table I) was “do not exhibit any muscarinic subtype specificity” and the “antimuscarinic activity” value (muscarinic receptors; overall, Table I) was “inactive”. For the same molecule, the “antimuscarinic activity” value (muscarinic receptors; overall, Table I, listed as bisdimethyl carbaphen (Compound 5)) was “lack of activity”.

For `CCN(CC)CCOC(=O)C(C)(c1ccccc1)c1ccc(OC(=O)N(C)C)cc1` (centres unmarked), the “inhibition of α-amylase release relative to monomethyl carbaphen” value ([6]; comparison with Compound 16) was “one order of magnitude lower”, the “inhibition of [^3 H]NMS binding relative to monomethyl carbaphen” value ([7]; comparison with Compound 16) was “one order of magnitude lower” and the “potency relative to physostigmine and pyridostigmine” value [1] was “high potencies on the order of those of physostigmine and pyridostigmine”. The “pA2, inhibition” value [2] was 7.1 ± 0.1, the “pA2 for inhibition of ileum contraction relative to monomethyl carbaphen” value ([2]; comparison with Compound 16) was “about the same as that of monomethyl carbahen” and the Kb [2] was 0.083 µM. The “muscarinic subtype specificity” value (muscarinic receptors; Table I) was “do not exhibit any muscarinic subtype specificity”, the “antimuscarinic activity” value (muscarinic receptors; overall, Table I, listed as Compound 15) was “potent antimuscarinic activity” and the “antimuscarinic activity” value (muscarinic receptors; overall, Table I, listed as dimethyl carbaphen (Compound 15)) was “almost the same anti-muscarinic profile as the known compound aprophen”.

In the case of `CCN(CC)CCOC(=O)C(C)(c1ccccc1)c1ccc(O)cc1` (centres unmarked), the “pA2, inhibition” value [2] is reported as 7.2 ± 0.3, the Kb [2] is reported as 0.07 µM and the “antimuscarinic activity” value (muscarinic receptors; overall, Table I, listed as Compound 14) is reported as “potent antimuscarinic activity”. The “antimuscarinic activity” value (muscarinic receptors; overall, Table I, listed as hydroxy aprophen (Compound 14)) was “potent anti-muscarinic drug”, the “antimuscarinic activity” value (muscarinic receptors; overall, Table I, listed as hydroxy aprophen, Compound 14) was “almost as potent an antimuscarinic as monomethyl carbaphen” and the “preference for the M2 subtype of the pancreas over the M1 subtype of the cerebral cortex” value (muscarinic receptors; ratio of Ki values) was “about 18 fold”.

— US5026897A, “Carbaphens: aprophen analogs that are binary antidotes for organophosphate poisoning” (dated 1991)
